Reference: patent publication US9890152B2 (Genentech, Inc., priority 2012, dated 2018)

The chains behind the UniProt entries cited, without tags or fusion partners. Residues count along the entry.
UniProt P00533, 25-1210 T790M/L858R limits assumed: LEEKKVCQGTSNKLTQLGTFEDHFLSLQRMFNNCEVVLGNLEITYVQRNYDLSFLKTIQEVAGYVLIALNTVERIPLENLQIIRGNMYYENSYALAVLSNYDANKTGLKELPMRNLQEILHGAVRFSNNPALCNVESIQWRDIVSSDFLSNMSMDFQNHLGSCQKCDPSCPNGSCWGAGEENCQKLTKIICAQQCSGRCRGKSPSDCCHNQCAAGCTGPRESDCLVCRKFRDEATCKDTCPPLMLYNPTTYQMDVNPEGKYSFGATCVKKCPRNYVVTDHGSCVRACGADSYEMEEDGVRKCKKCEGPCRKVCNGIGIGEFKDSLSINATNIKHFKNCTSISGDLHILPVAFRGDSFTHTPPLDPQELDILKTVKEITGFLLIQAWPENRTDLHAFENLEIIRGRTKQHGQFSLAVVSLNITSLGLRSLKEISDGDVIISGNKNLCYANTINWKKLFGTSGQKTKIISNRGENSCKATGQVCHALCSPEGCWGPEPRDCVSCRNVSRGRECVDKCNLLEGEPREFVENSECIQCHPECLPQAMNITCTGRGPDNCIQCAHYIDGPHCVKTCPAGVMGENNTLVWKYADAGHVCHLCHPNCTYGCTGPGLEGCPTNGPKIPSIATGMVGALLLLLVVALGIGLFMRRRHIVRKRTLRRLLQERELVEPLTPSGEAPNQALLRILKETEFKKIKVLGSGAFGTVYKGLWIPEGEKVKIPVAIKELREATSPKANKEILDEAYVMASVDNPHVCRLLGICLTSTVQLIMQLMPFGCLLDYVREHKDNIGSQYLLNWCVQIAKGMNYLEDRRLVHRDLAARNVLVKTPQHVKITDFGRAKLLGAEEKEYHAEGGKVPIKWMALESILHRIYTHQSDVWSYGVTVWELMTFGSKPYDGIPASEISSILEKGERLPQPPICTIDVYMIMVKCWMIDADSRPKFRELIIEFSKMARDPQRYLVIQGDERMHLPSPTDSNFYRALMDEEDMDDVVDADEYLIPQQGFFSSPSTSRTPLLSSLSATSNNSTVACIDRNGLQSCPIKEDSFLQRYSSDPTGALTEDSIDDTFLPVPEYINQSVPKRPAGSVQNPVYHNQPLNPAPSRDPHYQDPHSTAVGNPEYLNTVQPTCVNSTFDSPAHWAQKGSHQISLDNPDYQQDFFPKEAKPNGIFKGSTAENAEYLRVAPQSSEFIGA

biological target: EGFR T790M L858R (Homo sapiens, UniProt P00533, L858R/T790M); assay: biochemical; conditions: EGFR(T790M/L858R) Ki (μM), 5 μM ATP, 30 min, room temperature; apparent Ki (Morrison) converted by Cheng-Prusoff, Km of ATP 1.3 μM

Structure (SMILES)	Ki
COC1CCN(c2nccc(Nc3cc4[nH]ccc4cn3)n2)CC1 [Example 319]	0.525 µM
CNc1ncc(-c2nccc(Nc3cc4c(cn3)nc(CO)n4C(C)C)n2)n1C [Example 613, {1-Isopropyl-6-[2-(3-methyl-2-methylamino-3H-imidazol-4-yl)pyrimidin-4-ylamino]-1H-imidazo[4,5-c]pyridin-2-yl}methanol]	0.218 µM
Cc1nc2cnc(Nc3ccnc(-c4ccc(S(C)(=O)=O)nc4)n3)cc2n1C(C)C [Example 587, (1-Isopropyl-2-methyl-1H-imidazo[4,5-c]pyridin-6-yl)-[2-(6-methanesulfonylpyridin-3-yl)pyrimidin-4-yl]amine]	1.03 µM
CC(C)n1cnc2cnc(Nc3ccnc(N4CCN5CCCC5C4)n3)cc21 (centres unmarked) [Example 205]	1.16 µM
Cc1n[nH]c(-c2nccc(Nc3cc4c(cn3)nc(C)n4C(C)C)n2)n1 [Example 368, 1-Isopropyl-2-methyl-N-(2-(3-methyl-1H-1,2,4-triazol-5-yl)pyrimidin-4-yl)-1H-imidazo[4,5-c]pyridine-6-amine]	1.08 µM
COC1CCN(c2nccc(Nc3cc4c(cn3)nc(CO)n4C(C)C)n2)CC1 [Example 10, {1-Isopropyl-6-[2-(4-methoxypiperidin-1-yl)pyrimidin-4-ylamino]-1H-imidazo[4,5-c]pyridin-2-yl}methanol]	0.0186 µM
Cc1nc2cnc(Nc3ccnc(C4=CCOC4)n3)cc2n1C(C)C [Example 575, [2-(2,5-Dihydrofuran-3-yl)pyrimidin-4-yl]-(1-isopropyl-2-methyl-1H-imidazo[4,5-c]pyridin-6-yl)amine]	0.258 µM
Cc1nc2cnc(Nc3ccnc(-n4ccnc4)n3)cc2n1C(C)C [Example 599, (2-Imidazol-1-ylpyrimidin-4-yl)-(1-isopropyl-2-methyl-1H-imidazo[4,5-c]pyridin-6-yl)amine]	0.328 µM
COCCOC1CCN(c2nccc(Nc3cc4c(cn3)ncn4C(C)C)n2)CC1 [Example 156, (1-Isopropyl-1H-imidazo[4,5-c]pyridin-6-yl)-{2-[4-(2-methoxyethoxy)piperidin-1-yl]pyrimidin-4-yl}amine]	0.166 µM
Cc1nc2cnc(Nc3ccnc(NCC(C)(C)C(=O)O)n3)cc2n1C(C)C [Example 302, 3-[4-(1-Isopropyl-2-methyl-1H-imidazo[4,5-c]pyridin-6-ylamino)pyrimidin-2-ylamino]-2,2-dimethylpropionic acid]	0.243 µM
CC(C)n1cnc2cnc(Nc3ccnc(N4CCC5(CCNCC5)C4)n3)cc21 [Example 224]	1.78 µM

Results, then the compound that gave them:

Ki	Structure (SMILES)
0.00789 µM	Cc1nc2cnc(Nc3ccnc(-c4ccc(N)nc4)n3)cc2n1C(C)C [Example 586, [2-(6-Aminopyridin-3-yl)pyrimidin-4-yl]-(1-isopropyl-2-methyl-1H-imidazo[4,5-c]pyridin-6-yl)amine]
0.00216 µM	CC(C)n1c([C@@H](C)O)nc2cnc(Nc3ccnc(-c4cnn(S(=O)(=O)C5CC5)c4)n3)cc21 [Example 561, (R)-1-{6-[2-(1-Cyclopropanesulfonyl-1H-pyrazol-4-yl)pyrimidin-4-ylamino]-1-isopropyl-1H-imidazo[4,5-c]pyridin-2-yl}ethanol]
0.00476 µM	CC(C)n1c([C@H](O)CO)nc2cnc(Nc3ccnc(-c4cnn(S(=O)(=O)C5CC5)c4)n3)cc21 [Example 569, (S)-1-{6-[2-(1-Cyclopropanesulfonyl-1H-pyrazol-4-yl)pyrimidin-4-ylamino]-1-isopropyl-1H-imidazo[4,5-c]pyridin-2-yl}ethane-1,2-diol]
0.0767 µM	CC(C)n1c(CO)nc2cnc(Nc3ccnc(N4CC[C@@](O)(C5CC5)[C@H](F)C4)n3)cc21 (racemic) [Example 633, (3RS,4RS)-4-cyclopropyl-3-fluoro-1-(4-((2-(hydroxymethyl)-1-isopropyl-1H-imidazo[4,5-c]pyridin-6-yl)amino)pyrimidin-2-yl)piperidin-4-ol]
0.00214 µM	Cc1cc(-c2cn(C(C)C)c3cc(Nc4ccnc(-c5cnn(S(=O)(=O)C6CC6)c5)n4)ncc23)nn1CCO [Example 435, 2-(3-(6-(2-(1-(cyclopropylsulfonyl)-1H-pyrazol-4-yl)pyrimidin-4-ylamino)-1-isopropyl-1H-pyrrolo[3,2-c]pyridin-3-yl)-5-methyl-1H-pyrazol-1-yl)ethanol]
0.0092 µM	COC1CCN(c2nccc(Nc3cc4c(cn3)nc(C)n4C(C)C3CC3)n2)CC1 (centres unmarked) [Example 268, [1-(1-Cyclopropylethyl)-2-methyl-1H-imidazo[4,5-c]pyridin-6-yl]-[2-(4-methoxypiperidin-1-yl)pyrimidin-4-yl]amine]
0.0028 µM	CCNC(=O)c1cn(C(C)C)c2cc(Nc3ccnc(-c4cnn(S(=O)(=O)N(C)C)c4)n3)ncc12 [Example 377, 6-((2-(1-(N,N-dimethylsulfamoyl)-1H-pyrazol-4-yl)pyrimidin-4-yl)amino)-N-ethyl-1-isopropyl-1H-pyrrolo[3,2-c]pyridine-3-carboxamide]
0.0436 µM	CC(C)n1c(CO)nc2cnc(Nc3ccnc(N4CCC(O)CC4)n3)cc21 [Example 504, 1-(4-((2-(Hydroxymethyl)-isopropyl-1H-imidazo[4,5-c]pyridin-6-yl)amino)pyrimidin-2-yl)piperidin-4-ol]
0.00588 µM	COC1CCN(c2nccc(Nc3cc4c(cn3)nc(C)n4C(C)C)n2)CC1(F)F (racemic) [Example 528, (±)-[2-(3,3-Difluoro-4-methoxypiperidin-1-yl)pyrimidin-4-yl](1-isopropyl-2-methyl-1H-imidazo[4,5-c]pyridin-6-yl)amine]
0.0675 µM	CC(C)n1c(CO)nc2cnc(Nc3ccnc(-c4cnn(CC(C)(C)C(N)=O)c4)n3)cc21 [Example 471, 3-(4-(4-(2-(hydroxymethyl)-1-isopropyl-1H-imidazo[4,5-c]pyridin-6-ylamino)pyrimidin-2-yl)-1H-pyrazol-1-yl)-2,2-dimethylpropanamide]
0.158 µM	CC(C)n1cnc2cnc(Nc3ccnc(N4CCSCC4)n3)cc21 [Example 137, (1-Isopropyl-1H-imidazo[4,5-c]pyridin-6-yl)-(2-thiomorpholin-4-ylpyrimidin-4-yl)amine]
0.0767 µM	CC(C)n1c(CO)nc2cnc(Nc3ccnc(N4CC[C@H](O)[C@H](C)C4)n3)cc21 (racemic) [Example 631, (±)-(cis)-1-(4-(2-(Hydroxymethyl)-1-isopropyl-1H-imidazo[4,5-c]pyridin-6-ylamino)pyrimidin-2-yl)-3-methylpiperidin-4-ol]
0.00307 µM	CC(C)n1c(C2CC2)nc2cnc(Nc3ccnc(-c4cnn(S(=O)(=O)C5CC5)c4)n3)cc21 [Example 564, [2-(1-Cyclopropanesulfonyl-1H-pyrazol-4-yl)-pyrimidin-4-yl]-(2-cyclopropyl-1-isopropyl-1H-imidazo[4,5-c]pyridin-6-yl)amine]
0.119 µM	COC1CCN(c2nccc(Nc3cc4c(cn3)nc(C(F)(F)F)n4C(C)C)n2)CC1 [Example 41, 1-Isopropyl-N-(2-(4-methoxypiperidin-1-yl)pyrimidin-4-yl)-2-(trifluoromethyl)-1H-imidazo[4,5-c]pyridin-6-amine]
0.138 µM	O=S(=O)(C1CC1)n1cc(-c2nccc(Nc3cc4c(cn3)nc(CO)n4C3CCC(F)(F)C3)n2)cn1 (centres unmarked) [Example 482, (6-((2-(1-(cyclopropylsulfonyl)-1H-pyrazol-4-yl)pyrimidin-4-yl)amino)-1-(3,3-difluorocyclopentyl)-1H-imidazo[4,5-c]pyridin-2-yl)methanol]
